{"sequences": {"note": "Amino acid sequences for entries named in this document (tags omitted). Residues count along the entry.", "UniProt Q13304, 29-367": "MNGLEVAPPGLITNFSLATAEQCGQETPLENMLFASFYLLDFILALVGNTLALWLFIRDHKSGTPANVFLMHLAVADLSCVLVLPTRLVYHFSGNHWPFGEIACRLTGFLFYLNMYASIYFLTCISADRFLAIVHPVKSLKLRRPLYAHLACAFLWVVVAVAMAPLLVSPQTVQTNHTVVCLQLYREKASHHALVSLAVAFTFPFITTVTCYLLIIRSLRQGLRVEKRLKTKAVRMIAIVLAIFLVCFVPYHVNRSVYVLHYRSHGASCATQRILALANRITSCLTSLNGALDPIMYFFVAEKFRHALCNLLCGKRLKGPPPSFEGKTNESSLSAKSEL"}, "source": "patent US20260242372A1", "about": "“NOVEL IMIDAZOPYRIDINE AND PYRAZOLOPYRIDINE SULFONAMIDE DERIVATIVES” (Hoffmann-La Roche Inc., priority 2022, published 2026)", "target": "human GPR17 short isoform (Homo sapiens, UniProt Q13304)", "assay": "GPR17 cAMP assay (hGPR17 cAMP, TR-FRET, antagonist mode)", "type": "cell-based", "conditions": "read-out: hGPR17 cAMP IC50; CHO-K1 cells stably expressing human GPR17 short isoform; EC80 of agonist MDL29,951; forskolin 15 μM; 30 min at room temperature"}
{"smiles": "COc1nc(OCC(F)F)c(F)cc1NS(=O)(=O)c1cnc2cc(C3(O)COC3)ccn12", "values": [{"measurement": "IC50", "value": 101, "unit": "nM"}]}
